Test: solubility in water
Format: physicochemical
From the text: Also, the cyclodextrin carrier-based arteannuinoid compound is absorbed in merely a small amount when passing through stomach and small intestine of a human body, which is mainly absorbed by the large intestine, with a property of releasing in straight cecum. Therefore, the cyclodextrin carrier-based arteannuinoid compound according to the present disclosure can effectively enter the body of a patient, improving the bioavailability.

For “mono-6-artesunate-β-cyclodextrin conjugate [Example 1]”, which solubility is on record?
The solubility was 65 mg/mL.

— patent EP2974743B1, “CYCLODEXTRIN CARRIER-BASED ARTEANNUIN COMPOUND CONJUGATE AND PREPARING METHOD THEREOF” (KPC Pharmaceuticals, Inc., priority 2012, dated 2014)
